# Measured values reported in US11491146B2, “Therapeutic methods and combinations” (priority 2017, dated 2022).
# Read-outs that look alike come from different tables or passages of the source.
# How the values were obtained:
# VIM-2 = VIM-2 (Pseudomonas aeruginosa, UniProt Q9K2N0); assay: Dose response enzymatic inhibition assay and inhibition constant against VIM2; format: biochemical, P. aeruginosa
# Description: For our biochemical assay, the blavmugene, from a clinical strain of P. aeruginosa, was expressed using the pET24a (+) vector [20]. The pET24a-VIM-2 plasmid was transformed into competent BL21 (DE3) E. coli cells. The cells were plated onto an LB-agar plate with kanamycin (25 μg/mL) and incubated overnight at 37° C. A single colony was used to inoculate 50 mL of LB, containing 25 μg/mL kanamycin, and the culture was shaken overnight at 37° C. From the overnight culture, 10 mL were transferred to 4×1 L LB medium containing 25 μg/mL kanamycin. The cultures were grown at 37° C. until the optical density (OD600 nm) reached 0.6-0.8, at which point protein production was induced with IPTG (0.5 mM) and ZnC12 (100 μM). The temperature was reduced to 20° C., and the cells were shaken for an additional 18 h. The cultures were harvested by centrifugation (8K×g) for 10 min at 4° C. […] The sample was loaded onto the column, and proteins were eluted with a linear gradient 0-500 mM NaCl with buffer B. Fractions containing VIM2, determined by SDS-PAGE, were pooled and concentrated to 2-3 mL in an Amicon ultraconcentrator equipped YM-10 membrane. […]
# The relative change in absorbance was evaluated as percentage inhibition and the IC50 was determined by fitting the data to a sigmoidal dose-response curve. […]
# E. coli = assay: Cell viability assay, wild type E. coli growth; format: cell-based
# Description: (§1) The cells were cultured on 0.8 g/100 ml nutrient agar plate at pH 7.0 and 37° C. The bacterial growth medium was diluted in nutrient broth (NB) to a concentration absorbance of 1.5 at OD600 nm and incubated overnight in 10 ml capped culture tubes with shaking. An overnight culture of the bacterial strain was sub-cultured to an optical density of 0.06 at OD600 nm into the NB medium and was then seeded at max 200 μl into the wells of a 96 well microtiter plate. Samples were then incubated at 37° C. and shaken at 200 rpm for 18 h.
# VIM2 expressing E. coli = format: cell-based
# Description: as §1
compound,measurement,setting,value
"On1ccccc1=S [Compound 2b, 1-Hydroxypyridine-2-thione]",fold loss of Ki relative to compound 3,VIM-2,20 fold
same,Ligand efficiency (LE),"VIM-2; LE = −1.38 log (Ki)/N, N = number of heavy atoms",1.15
same,relative percentage growth compared to untreated cells,"E. coli; Amox(+), 50 μM amoxicillin",1.9%
same,relative percentage growth compared to untreated cells,E. coli; Amox(−),5.3%
same,relative percentage growth compared to untreated cells,"VIM2 expressing E. coli; Amox(+), 50 μM amoxicillin",2.1%
same,relative percentage growth compared to untreated cells,VIM2 expressing E. coli; Amox(−),11%
